From patent publication EP4843994A1, “NOVEL PEPTIDE HAVING MUSCLE FORMATION-PROMOTING ACTIVITY, ANTI-OBESITY ACTIVITY AND ANTI-DIABETIC ACTIVITY AND USES THEREOF” (dated 2026) come the findings set out here.

Assay [1] has as its system HepG2 cells. Briefly: Expression of insulin resistance and sensitivity related genes in hepatocytes (RT-PCR). Conditions: 500 µM oleic acid (insulin resistance environment), peptide 5 µM, 50 µM, 48 hours. The method, then: HepG2 cells (human-derived hepatocytes) were cultured in DMEM medium containing 1% P/S and 10% FBS. When cell confluency reached approximately 70 to 80%, cells were seeded into a 12-well culture plate at a concentration of 2 x 10^5 cells/ml. Subsequently, when cell confluency in the 12-well culture plate reached approximately 70 to 80%, the medium was replaced with serum-free DMEM medium. After 4 hours, an insulin resistance environment was induced by replacing the medium with serum-free DMEM (1% BSA) supplemented with 500 µM oleic acid (Sigma, St. Louis, MO, USA). After induction for 24 hours, the cells were replaced with serum-free DMEM (1% BSA) supplemented with 500 µM oleic acid (Sigma, St. Louis, MO, USA) and peptides (5 µM, 50 µM), and cultured for 48 hours. After culture, cells were harvested and RNA was extracted using Trizol (Thermo Fisher Scientific, USA). The extracted RNA was synthesized to obtain DNA complementary to the RNA using TOPScript™ RT DryMIX (enzynomics, Korea), and then polymerase chain reaction (PCR) was performed on genes of markers related to insulin resistance and sensitivity using TOPsimple™ DryMIX-nTaq (enzynomics, Korea). Subsequently, the reaction products were run on a 1.5% agarose gel to compare the mRNA expression levels of the markers for each sample. The primer sequences for the genes used in the PCR are listed in Table 4 below, and the GAPDH gene was used as a control group.
Through the above experiment, it was aimed to determine whether insulin sensitivity is induced by treating HepG2 cells, in which an insulin resistance environment was induced by oleic acid treatment, with peptides. Whether insulin sensitivity was induced was confirmed by analyzing the expression levels of factors related to insulin resistance or sensitivity using RT-PCR. As a result of the experiment, it was confirmed that treatment with oleic acid increased the expression levels of mTOR and P70S6K, which are factors related to insulin resistance, in HepG2 cells, but when the cells were treated with a peptide, the increased expression levels of mTOR and P70S6K decreased again in a concentration-dependent manner of the peptide. Additionally, it was confirmed that treatment with oleic acid decreased the expression levels of AKT, SIRT1, and AMPKα, which are factors related to insulin sensitivity, in HepG2 cells, but when the cells were treated with a peptide, the decreased expression levels of AKT, SIRT1, and AMPKα increased again (FIGS. 10A and 10B).

In assay [2] the test system is HepG2 cells. In words: Expression of fatty acid oxidation-related proteins in hepatocytes (Western blot). Conditions: 500 µM oleic acid, peptide 5 µM, 50 µM, 48 hours. How it is done:
HepG2 cells (human-derived hepatocytes) were cultured in DMEM medium containing 1% P/S and 10% FBS. When cell confluency reached approximately 70 to 80%, cells were seeded into a 12-well culture plate at a concentration of 2 x 10^5 cells/ml. Subsequently, when cell confluency in the 12-well culture plate reached approximately 70 to 80%, the medium was replaced with serum-free DMEM medium. After 4 hours, lipid accumulation was induced by replacing the solution with serum-free DMEM (1% BSA) supplemented with 500 µM oleic acid (Sigma, St. Louis, MO, USA). After inducing lipid accumulation for 24 hours, the solution was replaced with serum-free DMEM (1% BSA) supplemented with 500 µM oleic acid (Sigma, St. Louis, MO, USA) and peptides (5 µM, 50 µM), and cultured for 48 hours. After culture, lysis buffer was added to lyse the cells, and the cell lysate was centrifuged at 4°C at 12,000 rpm for 30 minutes to obtain the protein. The obtained protein was quantified using a BCA kit. The protein was electrotransferred onto a membrane after performing SDS-PAGE (sodium dodecyl sulfate-polyacrylamide gel electrophoresis). After blocking the protein-attached membrane with 5% skim milk, the membrane was treated with the primary antibody and incubated overnight at 4°C. […]
A general note: A western blot detects proteins with antibodies after separation by electrophoresis.

Assay [3] concerns 3T3-L1 cells. In words: Expression of adipogenesis-related genes in adipocytes (RT-PCR). As to conditions: 3T3-L1 cells differentiated into adipocytes, peptide 5 µM, 50 µM, 48 hours. How it is done:
3T3-L1 cells (preadipocytes, American Type Culture Collection) were cultured in DMEM medium containing 2% BCS (Bovine Calf Serum) (Welgene, Korea). To differentiate 3T3-L1 cells into adipocytes, cells were seeded into 12-well culture plates at a concentration of 1 x 10^5 cells/well, and when the cells became confluent (Day=2), the medium was replaced once more and cultured for an additional 48 hours. After 48 hours (Day=0), the culture medium was replaced with DMEM medium containing 10% FBS, 1% P/S, 1 µg/ml insulin (Sigma, USA), 0.5 mM isobutylmethylxanthine (IBMX) (Sigma, USA), and 1 µM Dexamethasone (Sigma, USA), and cultured. After 2 days (Day=2), the medium was replaced with DMEM medium containing 10% FBS, 1% P/S, and 1 µg/ml insulin, and cultured. After 3 days (Day=5), the medium was replaced with one containing only 10% FBS and 1% P/S, treated with peptides (5 µM, 50 µM), and cultured for 48 hours. After culture, cells were harvested and RNA was extracted using Trizol (Thermo Fisher Scientific, USA). DNA complementary to the extracted RNA was synthesized using TOPScript™ RT DryMIX (enzynomics, Korea), and then polymerase chain reaction (PCR) was performed on genes of adipogenesis-related markers using TOPsimple™ DryMIX-nTaq (enzynomics, Korea). Subsequently, the reaction products were run on a 1.5% agarose gel to compare the mRNA expression levels of the markers for each sample. […]

On to `C[C@@H](O)[C@H](NC(=O)CNC(=O)[C@@H](N)Cc1c[nH]cn1)C(=O)N[C@@H](Cc1ccc(O)cc1)C(=O)O`, for which, in assay [1], the “expression level of AKT (gene)” value is recorded as “increased again”, the “expression level of AMPKα (gene)” value is “increased again”, the “expression level of P70S6K (gene)” value was “decreased again in a concentration-dependent manner” and the “expression level of SIRT1 (gene)” value is reported as “increased again”. In addition, the “expression level of mTOR (gene)” value in assay [1] was “decreased again in a concentration-dependent manner”. For the same compound, in assay [2], the “expression level of CPT1 protein” value was “increased again” and the “expression level of PGC1α protein” value is “increased again”. For the same compound, in assay [3], the “expression of ACCα (gene)” value was “reduced” and the “expression of PPAR-γ (gene)” value was “reduced”.
